From ChEMBL document CHEMBL1128670, “Hypoxia-selective antitumor agents. 11. Chlorambucil N-oxide: a reappraisal of its synthesis, stability, and selective toxicity for hypoxic cells” (J Med Chem, 1995)

Assays:
CHO-AA8 = assay: Growth inhibition activity was measured in repair proficient AA8 cells under aerobic conditions (4 hours drug exposure)
UV4 = assay: Growth inhibition activity was measured in repair deficient UV4 cells under aerobic conditions (4 hours drug exposure)

For O=C(O)CCCc1ccc([N+]([O-])(CCCl)CCCl)cc1, the IC50 (CHO-AA8) was 46 µM and the IC50 (UV4) was 4.9 µM.
